The entries are a selection whose mix differs from that of the whole data set. Results filed as inconclusive are left out. Activity calls are given as the source filed them. Calls come from the whole dose curve; as a rule, active = well fitted inhibition curve with a large enough effect; inconclusive = small, poorly fitted or top-dose-only effect; inactive = no such curve, though single readings can be large or run the other way.
% is set by controls: 0 for no effect and ±100 for the full control effect.

Chains of the proteins cited; added tags and fusions are not shown. Residues count along the entry.
UniProt P02791, 2-175 limits assumed: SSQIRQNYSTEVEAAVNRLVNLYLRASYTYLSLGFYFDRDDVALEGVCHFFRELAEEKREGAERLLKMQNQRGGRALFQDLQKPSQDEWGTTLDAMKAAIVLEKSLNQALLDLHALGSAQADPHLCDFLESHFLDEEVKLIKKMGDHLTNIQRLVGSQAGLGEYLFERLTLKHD

This test deals with Ferritin light chain (Equus caballus) (UniProt P02791). Nature of the test: qHTS Assay for Identification of Novel General Anesthetics. Note: nearly all actives have a fitted effect of over 20% in size. The conditions noted are these: apoferritin/1-aminoanthracene competitive binding, fluorescence; at 77.5 µM (top of the series) unless noted. On the technique in general: Quantitative high-throughput screening tests each substance at several concentrations.
As for `CCOC(=O)c1ccc(NP(C)(=O)Oc2ccccc2)cc1` (stereo not given), the activity change, negative = displacement is inactive: -3.24%.
In the case of `Cc1ccc(NP(C)(=O)Oc2ccccc2)c(C)c1` (stereo not given), the activity change, negative = displacement is inactive: -2%.
On to `COc1ccccc1OP(C)(=O)Nc1ccc(C)cc1` (stereo not given), for which the activity change, negative = displacement was inactive: -8.48%.
With `COc1ccc(OP(C)(=O)Nc2cccc(F)c2)cc1` (stereo not given), the activity change, negative = displacement was inactive: -3.89%.
In the case of `COc1ccccc1OP(C)(=O)Nc1cc(Cl)ccc1C` (stereo not given), the activity change, negative = displacement is inactive: -13.5%.
On to `Cc1cc(C)cc(OP(C)(N)=O)c1` (stereo not given), for which the activity change, negative = displacement was inactive: -3.41%.
Regarding `O=C(O)C1(O)c2ccccc2-c2ccccc21`, the activity change, negative = displacement was inactive: -1.26%.
`O=C(O)C(O)(c1ccccc1)c1ccccc1`: the activity change, negative = displacement is inactive: 7.77%.
On to `Cc1cccc(C)c1OP(C)(N)=O` (stereo not given), for which the activity change, negative = displacement is inactive: 0.591%.
Take `CC(C)(C)c1ccc(OP(C)(=O)Nc2ccc(SC(F)(F)F)cc2)cc1` (stereo not given): the activity change, negative = displacement was inactive: 5.56%.
`CCN(CC)CCCOC(=O)C(O)(c1ccccc1)c1ccccc1`: the activity change, negative = displacement was inactive: 1.9%.
For the compound `CCOP(C)(=S)SCC(=O)NC(C)C(=O)O` (stereo not given), the activity change, negative = displacement is inactive: -2.15%.
The result for `CCOC(=O)c1ccc(NP(C)(=O)Oc2ccc(OC)cc2)cc1` (stereo not given) reads inactive: 5.44%; that for `CP(=O)(Nc1ccccn1)Oc1ccc(Cl)cc1` (stereo not given), inactive: -21.6%.
The result for `Cc1cccc(C)c1OP(C)(=O)Nc1ccc(SC(F)(F)F)cc1` (stereo not given) reads inactive: -2.28%; that for `CP(=O)(Nc1ccc(SC(F)(F)F)cc1)Oc1ccc(Cl)cc1` (stereo not given), inactive: -15.4%.
Regarding `Cc1cc(C)cc(OP(C)(=O)Nc2ccc(SC(F)(F)F)cc2)c1` (stereo not given), the activity change, negative = displacement is inactive: -4.37%.
Regarding `CCc1ccc(OP(C)(=O)N2CCN(c3ccc([N+](=O)[O-])cc3)CC2)cc1` (stereo not given), the activity change, negative = displacement was inactive: -13.9%.
On to `CP(=O)(NC(=O)Nc1ccccc1)Oc1ccccc1` (stereo not given), for which the activity change, negative = displacement was inactive: -9.86%.
With `CP(=S)(Nn1cnnc1)Oc1ccccc1` (stereo not given), the activity change, negative = displacement is inactive: -6.61%.
On to `COc1ccccc1OP(C)(=O)Nc1ccccc1` (stereo not given), for which the activity change, negative = displacement was inactive: -4.97%.
For `CP(=O)(Nc1ccccc1Br)Oc1ccccc1` (stereo not given), the activity change, negative = displacement is inactive: -15.1%.
The result for `COc1ccccc1OP(C)(=O)Nc1c(C)cccc1C` (stereo not given) reads inactive: -21.5%; that for `CN1CCCCC1COC(=O)C1(O)c2ccccc2CCc2ccccc21` (stereo not given), inactive: -13.1%; that for `CP(=O)(Nc1ccc(SC(F)(F)F)cc1)Oc1ccccc1` (stereo not given), inactive: 1.68%.
As for `O=[N+]([O-])c1cc([N+](=O)[O-])c(Nc2nnnn2CCO)c([N+](=O)[O-])c1`, the activity change, negative = displacement was inactive: 9.05%.
The result for `Cc1nc2ccc3ccccc3c2s1.O=[N+]([O-])c1cc([N+](=O)[O-])c(O)c([N+](=O)[O-])c1` reads inactive: -22.1%; that for `O=[N+]([O-])c1cc([N+](=O)[O-])c(-n2nnc3ccccc32)c([N+](=O)[O-])c1`, inactive: -21.4%.
On to `CC(C)N(CCCl)C(C)C`, for which the activity change, negative = displacement was inactive: 0.682%.
For the compound `CP(=O)(Nc1cccc(Br)c1)Oc1ccccc1` (stereo not given), the activity change, negative = displacement is inactive: -5.44%.
For the compound `Cc1cc(C)cc(OP(C)(=O)Nc2ccccn2)c1` (stereo not given), the activity change, negative = displacement is inactive: -19%.
To `Cc1ccc(C)c(NP(C)(=O)Oc2ccccc2)c1` (stereo not given) belongs inactive: 4.96%; to `COc1ccccc1OP(C)(=O)Nc1cccc(Br)c1` (stereo not given), inactive: -9.94%.
Consider `Cc1cc(C)cc(OP(C)(=O)Nc2ccc(C)cc2C)c1` (stereo not given), for which the activity change, negative = displacement was inactive: -19%.
The result for `CCOC(=O)c1ccc(NP(C)(=O)Oc2cc(C)cc(C)c2)cc1` (stereo not given) reads inactive: 5.41%; that for `O=[N+]([O-])OCC(CO[N+](=O)[O-])(CO[N+](=O)[O-])CO[N+](=O)[O-]`, inactive: 5.4%.
In the case of `CC1=NCCc2c1[nH]c1ccccc21.O=[N+]([O-])c1cc([N+](=O)[O-])c(O)c([N+](=O)[O-])c1`, the activity change, negative = displacement was inactive: 25.9%.
`CCN(CC)CCCOC(=O)C(O)(c1ccccc1)C1CCCCC1` (stereo not given): the activity change, negative = displacement is inactive: -10%.
For the compound `CCCCCOc1ccc(NP(C)(=O)Oc2ccc(Cl)cc2Cl)cc1` (stereo not given), the activity change, negative = displacement is inactive: -17.5%.
In the case of `CP(=O)(Nc1ccccc1)Oc1ccc(F)cc1` (stereo not given), the activity change, negative = displacement is inactive: -6.5%.
For `CCOC(=O)c1ccc(NP(C)(=O)Oc2ccc(F)cc2)cc1` (stereo not given), the activity change, negative = displacement is inactive: -3.11%.
Consider `O=C(OCCN1CCN(CCOCc2ccccc2)CC1)C(O)(c1ccccc1)c1ccccc1`, for which the activity change, negative = displacement was inactive: -12%.
On to `CC(C)c1ccc(OP(C)(=O)Nc2ccc(SC(F)(F)F)cc2)cc1` (stereo not given), for which the activity change, negative = displacement was inactive: -12.5%.
Regarding `CP(=O)(Nc1ccccc1F)Oc1ccccc1` (stereo not given), the activity change, negative = displacement was inactive: -13.7%.
The result for `CP(=O)(Nc1ccc2c(c1)OCCO2)Oc1ccccc1` (stereo not given) reads inactive: -11.1%; that for `CCN(CCCl)Cc1ccccc1C`, inactive: -3.62%.
Consider `Cc1ccccc1NP(C)(=O)Nc1ccccc1C`, for which the activity change, negative = displacement was inactive: 1.83%.
For the compound `CP(=O)(Nc1ccc(SC(F)(F)F)cc1)Oc1ccc(F)cc1` (stereo not given), the activity change, negative = displacement is inactive: 3.67%.
Consider `CCOP(C)(=S)SCC(=O)NC(C)(CC)C(=O)O` (stereo not given), for which the activity change, negative = displacement is inactive: 2.46%.
As to `Cc1cc(-c2cccc3ccccc23)c(C)cn1.O=[N+]([O-])c1cc([N+](=O)[O-])c(O)c([N+](=O)[O-])c1`, the activity change, negative = displacement is inactive: 2.24%.
As to `O=[N+]([O-])c1ccc(OP2(=O)COCCO2)cc1` (stereo not given), the activity change, negative = displacement is inactive: -0.699%.
The result for `COc1ccc(OP(C)(=O)Nc2cccc(Br)c2)cc1` (stereo not given) reads inactive: -9%; that for `COc1ccc(NP(C)(=O)Oc2ccccc2OC)cc1` (stereo not given), inactive: -5.13%.
To `CN(C)CCOC(=O)C(O)(c1ccccc1)C1CCCCC1` (stereo not given) belongs inactive: -0.903%; to `C/C1=C2N=C(/C=C3N=C(/C(C)=C4\[N-][C@@](C)([C@H]5N=C1[C@@](C)(CCC(=O)NC[C@H](C)OP(=O)([O-])O[C@@H]1[C@H](O)[C@H](n6cnc7cc(C)c(C)cc76)O[C@@H]1CO)[C@@H]5CC(N)=O)[C@](C)(CC(N)=O)[C@H]4CCC(N)=O)[C@@](C)(CC(N)=O)[C@@H]\3CCC(N)=O)C(C)(C)[C@@H]/2CCC(N)=O.[C-]#N.[Co+3]`, inactive: -7.58% [at 29.3 µM].
For the compound `CP(=O)(OC12CC3CC(CC(C3)C1)C2)OC12CC3CC(CC(C3)C1)C2`, the activity change, negative = displacement was inactive: -15.3%.
The result for `CCOC(=O)c1ccc(NP(C)(=O)Oc2ccc(Cl)cc2)cc1` (stereo not given) reads inactive: -3.95%; that for `CP(=O)(Nc1ccc(Cl)cc1)Oc1ccc(F)cc1` (stereo not given), inactive: -6.58%; that for `CC(C)(C)c1ccc(OP(C)(=O)O)cc1`, inactive: -8.56%.
As to `COc1ccccc1OP(C)(=O)Nc1ccccc1Br` (stereo not given), the activity change, negative = displacement is inactive: -9.77%.
Take `CN(C)C(=O)c1c([N+](=O)[O-])cc([N+](=O)[O-])cc1[N+](=O)[O-]`: the activity change, negative = displacement was inactive: -3.52%.
For the compound `COc1ccc(OP(C)(=O)Nc2ccc(Br)cc2)cc1` (stereo not given), the activity change, negative = displacement is inactive: -6.65%.
The result for `CCN(CC)CC(O)COC(=O)C(O)(c1ccccc1)C1CCCCC1` (stereo not given) reads inactive: -7.87%.
`CCc1ccc(OP(C)(=O)Nc2cccnc2)cc1` (stereo not given): the activity change, negative = displacement is inactive: -7%.
As for `CP(=O)(Oc1ccccc1)N1CCOC1=O` (stereo not given), the activity change, negative = displacement is inactive: -5.29%.
Consider `OCCSCCO`, for which the activity change, negative = displacement is inactive: -0.446%.
For the compound `O=C(OCCCN1CCCC1)C(O)(c1ccccc1)C1CCCCC1` (stereo not given), the activity change, negative = displacement is inactive: 7.8%.
`COc1ccccc1OP(C)(=O)Nc1c(C)n(C)n(-c2ccccc2)c1=O` (stereo not given): the activity change, negative = displacement is inactive: -11.5%.
With `Cc1c(NP(C)(=O)Oc2ccc(C(C)C)cc2)c(=O)n(-c2ccccc2)n1C` (stereo not given), the activity change, negative = displacement was inactive: -12.3%.
For `CCc1ccc(OP(C)(=O)O)cc1`, the activity change, negative = displacement was inactive: -1.03%.
For `CP(=O)(Nc1ccccn1)Oc1ccccc1` (stereo not given), the activity change, negative = displacement was inactive: 6.34%.
`COc1ccccc1OP(C)(=O)Nc1ccc(Br)cc1` (stereo not given): the activity change, negative = displacement was inactive: -1.41%.
To `CN(C)CCOC(=O)C(O)(c1ccccc1)C1CCCC1` (stereo not given) belongs inactive: -5.88%.
Regarding `COc1ccc(OP(C)(=O)Nc2ccccn2)cc1` (stereo not given), the activity change, negative = displacement is inactive: 0.58%.
Take `Cc1nc2ccc3ccccc3c2o1.O=[N+]([O-])c1cc([N+](=O)[O-])c(O)c([N+](=O)[O-])c1`: the activity change, negative = displacement was inactive: -20.2%.
For `CP(=O)(OCCOc1ccccc1)OCCOc1ccccc1`, the activity change, negative = displacement is inactive: -21.8%.
In the case of `CP(=O)(Nc1ccc(Cl)cc1Cl)Oc1ccccc1` (stereo not given), the activity change, negative = displacement was inactive: -11.8%.
Regarding `Cc1cc(C)cc(OP(C)(=O)Nc2cccc(C(F)(F)F)c2)c1` (stereo not given), the activity change, negative = displacement was inactive: -22.3%.
Consider `COc1ccc(OP(C)(=O)Nc2ccccc2Br)cc1` (stereo not given), for which the activity change, negative = displacement is inactive: 1.26%.
As for `COc1ccccc1OP(C)(=O)Nc1ccc(C)c(C)c1` (stereo not given), the activity change, negative = displacement was inactive: -11%.

The values above are taken from PubChem BioAssay AID485281 (National Center for Advancing Translational Sciences (NCATS), 2010).
